Measured values reported in patent US6335348B1, “Nitrogen-containing linear and azepinyl/ compositions and uses for vision and memory disorders” (GPI NIL Holdings, Inc., priority 1998, dated 2002).

The chains behind the UniProt entries cited, without tags or fusion partners.
UniProt P62942, whole entry, species assumed: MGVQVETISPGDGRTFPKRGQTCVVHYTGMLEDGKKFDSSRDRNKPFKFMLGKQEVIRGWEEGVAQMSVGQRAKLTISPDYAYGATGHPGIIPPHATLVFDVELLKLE

Target: FKBP12 (Homo sapiens, UniProt P62942)
Test: Ki test procedure: inhibition of peptidyl-prolyl isomerase (rotamase) activity, chymotrypsin-coupled assay
Assay type: biochemical
Details: apparent Ki, Table C
Description: The inhibition of the prolyl peptidyl cis-trans isomerase activity of FKBP may be measured as an indicator of this affinity. Inhibition of the peptidyl-prolyl isomerase (rotamase) activity of the compounds used in the inventive methods and pharmaceutical compositions can be evaluated by known methods described in the literature (Harding et al., Nature, 1989, 341:758-760; Holt et al. J. Am. Chem. Soc., 115:9923-9938). […] The cis-trans isomerization of an alanine-proline bond in a model substrate, N-succinyl-[…]-nitroanilide, is monitored spectrophotometrically in a chymotrypsin-coupled assay, which releases para-nitroanilide from the trans form of the substrate. The inhibition of this reaction caused by the addition of different concentrations of inhibitor is determined, and the data is analyzed as a change in first-order rate constant as a function of inhibitor concentration to yield the apparent Ki values. […] The reaction is initiated by the addition of […] of substrate (succinyl-[…]-nitroanilide, 5 mg/mL in 2.35 mM LiCl in trifluoroethanol). The absorbance at 390 nm versus time is monitored for 90 seconds using a spectrophotometer and the rate constants are determined from the absorbance versus time data files.

Ki [nM]	Compound
6000	COC(=O)C(=O)N1CCCCC1C(=O)OCCCCC1CCCCC1 (stereo not drawn) [Compound 17]
40	COc1cc(C(=O)C(=O)N2CCCCC2C(=O)OCCCCC2CCCCC2)cc(OC)c1OC (stereo not drawn) [Compound 21]

Compound	Ki [nM]
COc1cc(C(=O)C(=O)N2CCCCC2C(=O)OCc2cccc(Oc3ccccc3)c2)cc(OC)c1OC (stereo not drawn) [Compound 22]	18
